Measured values published in patent US20070155806A1, “Novel luciferin derivatives” (The University of Tokyo, priority 2005, published 2007).

Sequences of proteins named here, by UniProt entry; tags and fusion partners are left off.
UniProt P08659, whole entry, species assumed: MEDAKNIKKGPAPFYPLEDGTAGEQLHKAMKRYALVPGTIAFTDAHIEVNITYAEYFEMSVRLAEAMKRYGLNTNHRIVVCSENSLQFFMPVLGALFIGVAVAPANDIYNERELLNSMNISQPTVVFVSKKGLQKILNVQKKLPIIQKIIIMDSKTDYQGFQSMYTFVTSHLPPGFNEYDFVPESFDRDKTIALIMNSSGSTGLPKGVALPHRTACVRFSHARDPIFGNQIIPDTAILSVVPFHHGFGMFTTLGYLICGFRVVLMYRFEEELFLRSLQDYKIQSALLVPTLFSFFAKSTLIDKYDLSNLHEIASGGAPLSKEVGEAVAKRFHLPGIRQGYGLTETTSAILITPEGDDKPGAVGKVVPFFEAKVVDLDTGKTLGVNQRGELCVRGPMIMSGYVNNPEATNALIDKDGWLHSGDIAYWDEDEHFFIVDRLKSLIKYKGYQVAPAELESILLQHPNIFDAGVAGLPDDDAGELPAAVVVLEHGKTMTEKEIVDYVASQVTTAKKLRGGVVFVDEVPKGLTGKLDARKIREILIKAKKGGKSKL

Columns and labels:
luciferase (firefly) = luciferase (firefly) (Photinus pyralis, UniProt P08659); test: Luminescence characteristics with firefly luciferase (Example 3); assay type: biochemical; details: 12 μmol/L substrate, 20 μg/mL luciferase
Method: The measurement was performed by using Fluorescence Spectrophotometer F-4500 (Hitachi).

firefly luciferase = firefly luciferase (Photinus pyralis, UniProt P08659); details: conventional luciferin luminescence; cited from earlier work

O=C(O)[C@H]1CSC(c2nc3ccc(O)cc3s2)=N1 [luciferin]
λmax(nm) (luciferase (firefly); luminescence peak, HEPES pH 7.7, ATP, Mg, CoA): 575 nm
initial intensity (luciferase (firefly); luminescence, HEPES pH 7.7): 7332
emission wavelength (firefly luciferase): 570 nm
